In US20200024315A1, “ANTIMICROBIAL PEPTIDES AND METHODS OF TREATING GRAM-NEGATIVE PATHOGENS” (THE REGENTS OF THE UNIVERSITY OF COLORADO, a body corporate, priority 2017, published 2020):

Assay: Circular dichroism (CD) spectroscopy, characterization of helical structure
Assay type: physicochemical
Conditions: difference 50% TFE minus aqueous buffer

Substance: Ac-ALKKLLSTLSSA(Orn)SS(Orn)LSTLLKALKK-amide [D56]
- inducible helical structure Δ[Θ]222 nm TFE-Aqueous: 392
